scFv variants of Ab-14 (heavy chain) against a SARS-CoV-2 spike peptide

All variants were tested on one target, the spike HR2 peptide PDVDLGDISGINAS (SARS-CoV-2).

The variants keep the light chain, the linker and the frameworks of Ab-14 (scFv order VH, a (GGGGS)3 linker, VL).
VH: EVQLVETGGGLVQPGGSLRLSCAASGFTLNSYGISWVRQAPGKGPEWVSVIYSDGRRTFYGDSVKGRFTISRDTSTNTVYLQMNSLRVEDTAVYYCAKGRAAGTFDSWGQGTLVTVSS
VL: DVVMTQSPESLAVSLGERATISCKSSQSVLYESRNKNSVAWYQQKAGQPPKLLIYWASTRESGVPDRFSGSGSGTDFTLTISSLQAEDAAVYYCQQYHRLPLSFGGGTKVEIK

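Phage display of a naive human antibody library on the peptide gave the parent. The library (AAYL49) carries one to three amino acid substitutions per variant, with no insertions or deletions. Affinity was read by AlphaSeq, a pooled yeast mating assay with surface-displayed partners. Mating (16 h, 30 °C) was followed by selection of diploids and sequencing of their barcodes. A regression on co-assayed BCL2-family reference pairs converts the normalised counts of each replicate to an apparent Kd. The assay was run in three technical replicates.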

The parent's heavy chain CDRs are GFTLNSYGIS, VIYSDGRRTFYGDSVK, GRAAGTFDS; each variant's own CDRs replace them letter for letter. The read-out is the apparent dissociation constant on a log10 scale (nM): the lower, the stronger. A mean of the replicates is given; it leaves out those without a signal. A pair that was not seen in that replicate is written "n.d."; this usually means weak binding, but a binder can also be missed. In this assay the parent's reference entry averaged 0.65; its copy inside this library read 4.11 (one replicate of three).

{"CDR-H1": "DFTLNSYGIS", "CDR-H2": "VIYSDGRRTFYGDSVK", "CDR-H3": "PRAAGTFDS", "log10 Kd (nM) by replicate": "3.96 / 3.19 / 4.85", "mean log10 Kd (nM)": "4.00", "empty controls": "6 of 9 (4.45)"}
{"CDR-H1": "GFTDNSYGIS", "CDR-H2": "VIYSDGRRTFYGDSVK", "CDR-H3": "ASAAGTFDS", "log10 Kd (nM) by replicate": "3.78 / n.d. / n.d.", "mean log10 Kd (nM)": "3.78", "empty controls": "3 of 9 (3.95)"}
{"CDR-H1": "GFTLNSYGIS", "CDR-H2": "FIYSHGRRTFYGDSEK", "CDR-H3": "GRAAGTFDS", "log10 Kd (nM) by replicate": "n.d. / n.d. / n.d.", "mean log10 Kd (nM)": "n.d.", "empty controls": "0 of 9"}
{"CDR-H1": "GFCLNSKGIP", "CDR-H2": "VIYSDGRRTFYGDSVK", "CDR-H3": "GRAAGTFDS", "log10 Kd (nM) by replicate": "n.d. / n.d. / n.d.", "mean log10 Kd (nM)": "n.d.", "empty controls": "0 of 9"}
{"CDR-H1": "GFTLNSYGIS", "CDR-H2": "VIYSDGRRYFVGDSVK", "CDR-H3": "GRAAGTFDS", "log10 Kd (nM) by replicate": "2.84 / 3.30 / 3.24", "mean log10 Kd (nM)": "3.12", "empty controls": "3 of 9 (3.37)"}
{"CDR-H1": "GFTLNSYGIS", "CDR-H2": "VIYSTLRRTFYGDSVK", "CDR-H3": "GRMAGTFDS", "log10 Kd (nM) by replicate": "n.d. / n.d. / n.d.", "mean log10 Kd (nM)": "n.d.", "empty controls": "2 of 9 (4.07)"}
{"CDR-H1": "GFTLNSYGIS", "CDR-H2": "VIYSDGRRTFYGDSYK", "CDR-H3": "GDAAGPFDS", "log10 Kd (nM) by replicate": "6.14 / 4.85 / 4.12", "mean log10 Kd (nM)": "5.03", "empty controls": "3 of 9 (3.85)"}
{"CDR-H1": "GFTLNSYGIS", "CDR-H2": "VIYRRGRRTFYGDSVK", "CDR-H3": "GRAAGTFDT", "log10 Kd (nM) by replicate": "n.d. / n.d. / n.d.", "mean log10 Kd (nM)": "n.d.", "empty controls": "0 of 9"}
{"CDR-H1": "GFTLNSYGIG", "CDR-H2": "VIYSDGRRTFYGDYVK", "CDR-H3": "GRAAGTFWS", "log10 Kd (nM) by replicate": "n.d. / n.d. / n.d.", "mean log10 Kd (nM)": "n.d.", "empty controls": "4 of 9 (3.87)"}
{"CDR-H1": "GFTVNSYGFS", "CDR-H2": "VIYSDGRRTFYGDSVE", "CDR-H3": "GRAAGTFDS", "log10 Kd (nM) by replicate": "n.d. / 3.48 / n.d.", "mean log10 Kd (nM)": "3.48", "empty controls": "1 of 9 (4.10)"}
{"CDR-H1": "GFTLNSYGIS", "CDR-H2": "VIYCDGRRTFYGDSVK", "CDR-H3": "GRAANSFDS", "log10 Kd (nM) by replicate": "4.90 / 4.34 / n.d.", "mean log10 Kd (nM)": "4.62", "empty controls": "5 of 9 (5.08)"}
{"CDR-H1": "GFWLNSYGIS", "CDR-H2": "PIYSDGRRTFYGDSVK", "CDR-H3": "GRLAGTFDS", "log10 Kd (nM) by replicate": "n.d. / n.d. / n.d.", "mean log10 Kd (nM)": "n.d.", "empty controls": "1 of 9 (3.13)"}
{"CDR-H1": "GFTLNSYGIS", "CDR-H2": "DIYSDGRRRFYGDSVK", "CDR-H3": "GREAGTFDS", "log10 Kd (nM) by replicate": "n.d. / n.d. / 3.15", "mean log10 Kd (nM)": "3.15", "empty controls": "0 of 9"}
{"CDR-H1": "GFTLNSYGIS", "CDR-H2": "VIYSPGRCTFYGDSVK", "CDR-H3": "GRAAGTFDS", "log10 Kd (nM) by replicate": "n.d. / n.d. / n.d.", "mean log10 Kd (nM)": "n.d.", "empty controls": "1 of 9 (2.42)"}
{"CDR-H1": "GFTLNSTMIS", "CDR-H2": "VVYSDGRRTFYGDSVK", "CDR-H3": "GRAAGTFDS", "log10 Kd (nM) by replicate": "n.d. / 4.24 / n.d.", "mean log10 Kd (nM)": "4.24", "empty controls": "0 of 9"}
{"CDR-H1": "GFTLNSWVIS", "CDR-H2": "VIYSDGRWTFYGDSVK", "CDR-H3": "GRAAGTFDS", "log10 Kd (nM) by replicate": "n.d. / n.d. / n.d.", "mean log10 Kd (nM)": "n.d.", "empty controls": "1 of 9 (3.36)"}
{"CDR-H1": "GFTLNSYGTS", "CDR-H2": "GIFSDGRRTFYGDSVK", "CDR-H3": "GRAAGTFDS", "log10 Kd (nM) by replicate": "4.45 / n.d. / n.d.", "mean log10 Kd (nM)": "4.45", "empty controls": "2 of 9 (4.08)"}
{"CDR-H1": "GFTLNSEGIS", "CDR-H2": "VIYSDGRVTFYGDSVK", "CDR-H3": "GRAAGTFDR", "log10 Kd (nM) by replicate": "n.d. / n.d. / n.d.", "mean log10 Kd (nM)": "n.d.", "empty controls": "0 of 9"}

Background: pairings of library AAYL49 with three empty control strains gave a value in 15% of cases (median 4.06, 5th percentile 2.83). Values in that range, when seen in few replicates, are hard to tell from nonspecific mating. For each scFv, signals with the empty controls are counted beside the result, with their mean in brackets.

Source: Engelhart et al. 2022 (doi:10.1038/s41597-022-01779-4), MIT Lincoln Laboratory and A-Alpha Bio; data file from the FLAb repository.